Reference: patent publication US10894777B2, “TG2 inhibitor piperazine compounds and uses thereof” (UNIVERSITY OF OTTAWA, priority 2016, dated 2021)

Key:
Format in all cases: biochemical
TG2 [1] = molecular target: T1, TG2 (Homo sapiens, UniProt P21980); test: Colorimetric transamidase activity assay (AL5 substrate), hTG2
T1 sequence (P21980 1-687): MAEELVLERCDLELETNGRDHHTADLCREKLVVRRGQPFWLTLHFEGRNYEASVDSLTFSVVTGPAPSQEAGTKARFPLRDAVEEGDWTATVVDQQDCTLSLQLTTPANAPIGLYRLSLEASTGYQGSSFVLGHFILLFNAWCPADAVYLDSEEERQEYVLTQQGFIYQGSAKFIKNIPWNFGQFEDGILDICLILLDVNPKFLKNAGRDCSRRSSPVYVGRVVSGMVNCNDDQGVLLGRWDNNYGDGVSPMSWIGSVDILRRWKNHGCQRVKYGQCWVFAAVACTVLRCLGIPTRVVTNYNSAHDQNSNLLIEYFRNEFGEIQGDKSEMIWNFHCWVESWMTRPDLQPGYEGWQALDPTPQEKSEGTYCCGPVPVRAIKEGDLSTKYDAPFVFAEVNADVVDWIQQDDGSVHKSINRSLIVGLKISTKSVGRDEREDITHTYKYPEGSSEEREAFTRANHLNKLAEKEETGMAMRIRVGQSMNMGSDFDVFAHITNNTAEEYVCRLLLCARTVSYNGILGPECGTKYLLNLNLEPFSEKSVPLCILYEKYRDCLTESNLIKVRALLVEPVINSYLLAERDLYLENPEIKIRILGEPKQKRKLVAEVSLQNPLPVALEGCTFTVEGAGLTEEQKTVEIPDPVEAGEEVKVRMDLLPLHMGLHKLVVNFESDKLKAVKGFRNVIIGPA
Excerpt: (§1) In Vitro Assays. Colorimetric transamidase activity assay.

TG2 [2] = molecular target: T1, TG2; test: Kinetic inactivation of purified recombinant human TG2, continuous spectrophotometric activity assay (Examples 3, 10); parameters: made in house; details: Table 4
Experimental: Kinetic studies were carried out in vitro, using purified recombinant human TG2 (Roy, I. et al., Protein Expr. Purif. 87: 41-46, 2013) and a direct, continuous spectrophotometric activity assay (Leblanc, A. et al., Biochemistry 40: 8335-8342, 2001).
Kinetics. Kinetic runs were performed at 25° C. in 100 mM MOPS buffer (pH 7.0) containing 3 mM CaCl2 and 50 μM EDTA. […] Stock solutions of the substrate and inhibitors were prepared in DMF such that the final concentration of this co-solvent was constant at 10% v/v. Reactions were initiated with the addition of enzyme with an activity of approximately 0.05 U/mL. Kinetic evaluation was carried out by the method of Stone and Hofsteenge (Stone, S. R. and Hofsteenge, J., Biochem. J. 230: 497-502, 1985). […] Observed first-order rate constants of inactivation were determined from non-linear regression, to a mono-exponential model. These rate constants were in turn fit to equation 1 by non-linear regression, providing the kinetic parameters
Kinetic parameters were determined as described above.

hTG1 = molecular target: T2, hTG1 (Homo sapiens, UniProt P22735); test: Colorimetric transamidase activity assay (AL5 substrate), hTG1
T2 sequence (P22735 1-817): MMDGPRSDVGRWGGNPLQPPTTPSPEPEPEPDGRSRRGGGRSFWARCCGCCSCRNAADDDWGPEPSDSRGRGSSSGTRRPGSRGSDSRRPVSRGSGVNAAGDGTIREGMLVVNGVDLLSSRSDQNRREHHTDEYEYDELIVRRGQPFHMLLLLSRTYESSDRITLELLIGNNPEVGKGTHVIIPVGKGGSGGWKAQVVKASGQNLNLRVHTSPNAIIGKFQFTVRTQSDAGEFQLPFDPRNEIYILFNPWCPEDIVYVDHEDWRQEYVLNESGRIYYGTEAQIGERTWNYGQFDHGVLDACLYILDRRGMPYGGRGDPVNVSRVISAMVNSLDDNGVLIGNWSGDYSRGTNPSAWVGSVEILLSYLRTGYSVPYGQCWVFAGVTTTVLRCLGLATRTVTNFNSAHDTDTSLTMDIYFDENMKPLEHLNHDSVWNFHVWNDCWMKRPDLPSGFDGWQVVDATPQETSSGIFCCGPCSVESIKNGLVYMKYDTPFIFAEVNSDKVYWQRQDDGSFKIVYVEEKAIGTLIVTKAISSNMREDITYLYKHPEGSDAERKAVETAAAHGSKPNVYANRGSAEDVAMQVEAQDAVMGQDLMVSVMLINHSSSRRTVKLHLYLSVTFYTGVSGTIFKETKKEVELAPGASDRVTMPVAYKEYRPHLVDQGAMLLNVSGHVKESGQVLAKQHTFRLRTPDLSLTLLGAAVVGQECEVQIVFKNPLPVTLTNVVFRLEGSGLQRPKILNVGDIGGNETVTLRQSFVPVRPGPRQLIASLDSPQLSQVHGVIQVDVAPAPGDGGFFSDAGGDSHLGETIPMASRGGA
Experimental: Selectivity of certain irreversible inhibitors over other members of the transglutaminase family was assessed. Specifically, two efficient irreversible inhibitors, VA4 and NC9, were tested against four therapeutically relevant isoforms of human transglutaminase: FXIIIa, hTG3, hTG1 and hTG6. Inhibitors were tested using a continuous colorimetric assay (Leblanc, A. et al., Biochemistry (2001), 40 (28): 8335-8342) for hTG1 and hTG6 and a commercially available continuous fluorescent assay that utilizes a peptidic FRET quenched substrate (Oertel, K. et al., Anal. Biochem. (2007), 367 (2): 152-158; Király, R. et al., Amino Acids (2016), 48 (1): 31-40) for the other transglutaminases, FXIIIa and hTG3. The rate constant of enzyme inactivation (kobs) for a specific concentration of inhibitor was obtained using Kitz and Wilson conditions (Kitz, R. et al., J. Biol. Chem. (1962), 237: 3245-49). Inhibitor concentrations were adjusted to account for competition with substrates in each enzymatic reaction. […] In addition, VA4 illustrated a lower reactivity towards other transglutaminase isozymes compared to NC9.
as §1

TG3a = molecular target: T3, TG3a (Homo sapiens, UniProt Q08188); test: Fluorescence isopeptidase activity assay (A101 probe), TG3a; details: Table 9; Kitz and Wilson conditions
T3 construct: purchased Zedira
T3 sequence (Q08188 2-467 limits assumed): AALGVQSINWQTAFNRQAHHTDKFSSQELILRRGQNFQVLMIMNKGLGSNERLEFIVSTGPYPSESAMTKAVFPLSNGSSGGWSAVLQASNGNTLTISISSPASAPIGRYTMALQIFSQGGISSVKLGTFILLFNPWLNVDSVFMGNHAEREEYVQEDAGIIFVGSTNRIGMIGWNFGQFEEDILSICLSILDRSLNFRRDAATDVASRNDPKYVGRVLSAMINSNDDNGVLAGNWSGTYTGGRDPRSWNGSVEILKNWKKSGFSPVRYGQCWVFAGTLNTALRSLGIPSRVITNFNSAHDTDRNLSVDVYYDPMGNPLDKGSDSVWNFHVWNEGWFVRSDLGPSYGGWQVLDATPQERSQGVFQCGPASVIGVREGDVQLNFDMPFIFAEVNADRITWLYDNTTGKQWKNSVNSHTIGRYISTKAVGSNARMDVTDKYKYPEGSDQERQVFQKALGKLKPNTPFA
T3 sequence (Q08188 468-693 partner limits assumed): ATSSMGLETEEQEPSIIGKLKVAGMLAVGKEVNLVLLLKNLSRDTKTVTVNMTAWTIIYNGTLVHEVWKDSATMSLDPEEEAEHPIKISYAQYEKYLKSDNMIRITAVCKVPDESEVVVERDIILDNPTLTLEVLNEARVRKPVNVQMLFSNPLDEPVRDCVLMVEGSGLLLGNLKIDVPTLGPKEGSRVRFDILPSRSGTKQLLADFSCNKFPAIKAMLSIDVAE
Experimental: (§2) Selectivity of certain irreversible inhibitors over other members of the transglutaminase family was assessed. Specifically, two efficient irreversible inhibitors, VA4 and NC9, were tested against four therapeutically relevant isoforms of human transglutaminase: FXIIIa, hTG3, hTG1 and hTG6. Inhibitors were tested using a continuous colorimetric assay (Leblanc, A. et al., Biochemistry (2001), 40 (28): 8335-8342) for hTG1 and hTG6 and a commercially available continuous fluorescent assay that utilizes a peptidic FRET quenched substrate (Oertel, K. et al., Anal. Biochem. (2007), 367 (2): 152-158; Király, R. et al., Amino Acids (2016), 48 (1): 31-40) for the other transglutaminases, FXIIIa and hTG3. The rate constant of enzyme inactivation (kobs) for a specific concentration of inhibitor was obtained using Kitz and Wilson conditions (Kitz, R. et al., J. Biol. Chem. (1962), 237: 3245-49). Inhibitor concentrations were adjusted to account for competition with substrates in each enzymatic reaction. […]
(§3) Fluorescence isopeptidase activity assay. The isopeptidase activity of pre-activated TG3a and FXIIIa (purchased from Zedira) was measured via a fluorescence-based assay (Király, R. et al., Amino Acids (2016), 48 (1): 31-40) using the commercially available peptidic FRET quenched probe A101 from Zedira. […] The reaction was monitored at 25° C. using a BioTek Synergy 4 plate reader (Ex/Em: 318/413 nm).

FXIIIa = molecular target: T4, FXIIIa (Homo sapiens, UniProt P00488); test: Fluorescence isopeptidase activity assay (A101 probe), FXIIIa; details: Table 9; Kitz and Wilson conditions
T4 construct: purchased Zedira
T4 sequence (P00488 39-732 limits assumed): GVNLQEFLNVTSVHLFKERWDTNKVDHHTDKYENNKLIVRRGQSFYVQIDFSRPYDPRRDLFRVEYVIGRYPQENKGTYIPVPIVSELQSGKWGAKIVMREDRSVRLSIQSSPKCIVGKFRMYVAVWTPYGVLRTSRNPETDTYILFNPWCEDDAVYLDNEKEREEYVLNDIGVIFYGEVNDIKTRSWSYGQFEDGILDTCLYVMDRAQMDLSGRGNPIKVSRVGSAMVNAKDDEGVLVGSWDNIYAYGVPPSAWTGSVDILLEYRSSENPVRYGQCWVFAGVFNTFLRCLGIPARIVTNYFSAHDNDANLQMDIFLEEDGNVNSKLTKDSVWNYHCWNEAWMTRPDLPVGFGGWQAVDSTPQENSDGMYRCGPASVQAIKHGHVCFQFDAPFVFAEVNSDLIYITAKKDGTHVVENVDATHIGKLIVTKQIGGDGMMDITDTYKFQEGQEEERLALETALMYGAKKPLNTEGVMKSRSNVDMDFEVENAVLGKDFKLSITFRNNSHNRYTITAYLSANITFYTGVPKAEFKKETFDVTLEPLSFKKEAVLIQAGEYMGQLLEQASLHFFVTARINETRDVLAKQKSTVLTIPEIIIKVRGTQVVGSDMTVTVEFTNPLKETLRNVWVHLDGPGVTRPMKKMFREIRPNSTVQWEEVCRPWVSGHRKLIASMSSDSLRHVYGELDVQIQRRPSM
Experimental: as §2, §3

Structure (SMILES) | kinact (TG2 [1]; Table 8) [s⁻¹] | kinact (TG2 [2]) [s⁻¹] | kinact (TG2 [1]; Table 5) [s⁻¹] | kobs (10^−3 min^−1), TG2 (TG2 [1]; Table 9, Kitz and Wilson conditions, inhibitor concentration adjusted for competition with substrate) | kobs (10^−3 min^−1), TG1 (hTG1; Table 9, Kitz and Wilson conditions) | less reactive with hTG1 compared to hTG2 (hTG1; from kobs) [fold] | kobs (10^−3 min^−1), TG3a (TG3a) | kobs (10^−3 min^−1), FXIIIa (FXIIIa)
C=CC(=O)NCCCC[C@H](NC(=O)OCc1ccccc1)C(=O)N1CCN(C(=O)c2cccc3ccccc23)CC1 [AA9, (S)-benzyl (1-(4-(1-naphthoyl)piperazin-1-yl)-6-acrylamido-1-oxohexan-2-yl)carbamate] | 0.015 | 0.015 |  |  |  |  |  | 
C=CC(=O)NCCCC[C@H](NC(=O)OCc1ccccc1)C(=O)N1CCN(S(=O)(=O)c2cccc3c(N(C)C)cccc23)CC1 [VA4, (S)-benzyl(6-acrylamido-1-(4-((5-(dimethylamino)naphthalen-1-yl)sulfonyl)piperazin-1-yl)-1-oxohexan-2-yl)carbamate] |  |  | 0.0233 | 394 ± 37 10^−3 min^−1 | 8.27 ± 0.76 10^−3 min^−1 | 48 | 0.65 ± 0.21 10^−3 min^−1 | 4.08 ± 0.77 10^−3 min^−1
